The nature of this data set: Measurement of solubility of sulfites in distilled water. To be noted: for Concentration, Calculated value: calculated from mass and molecular weight. The method, then: To a cuvette for measuring absorbance (1×1×4 cm, manufactured by Hitachi High-Technologies Co.), 3 ml of 0.1 N hydrochloric acid (manufactured by Wako Pure Chemical Co., Ltd.) was added. To the cuvette, 30 μl of a sulfite solution diluted with distilled water was added, the cuvette was covered with parafilm, and inverted 3 times to mix the solutions.
Then, the mass, volume and pH at that time were measured. In addition, with regard to each solution, the sulfite concentration was measured in accordance with the method 0-A described above.
With regard to the concentration in the table, the calculated value represents the sulfite concentration (M (mol/l)) calculated from the mass and the molecular weight of each dissolved sulfite. In addition, the measured value represents the sulfite concentration (M) measured in accordance with the method 0-A described above.

Turning to ammonium sulfite monohydrate, where the note is “30° C.”, the “pH of saturated solution” value came out at 8.5 and the “Concentration, Calculated value” was 3.5 M. Where the note is “70° C.”, the “pH of saturated solution” value was 8.2 and the “Concentration, Calculated value” is recorded as 4.6 M.

(Values after patent US20080070240A2, “COMPOSITION FOR DEAMINATING DNA AND METHOD OF DETECTING METHYLATED DNA” (Toyo Boseki Kabushiki Kaisha, priority 2004, published 2008).)
